Assay results as given in ChEMBL document CHEMBL1134417, “Hypoxia-selective antitumor agents. 16. Nitroarylmethyl quaternary salts as bioreductive prodrugs of the alkylating agent mechlorethamine” (2001).

Columns and labels:
EMT6 [1] = test: Hypoxic cytotoxicity ratio was determined; details: Mus musculus
EMT6 [2] = test: Ability to reduce surviving fraction of EMT6 cells to 10% when exposed to N2 for 3 hrs; details: Mus musculus
Mus musculus [3] = test: In vivo toxicity against C3H/HeN cell line in mice expressed as maximal tolerated dose
EMT6 [4] = test: Ability to reduce surviving fraction of EMT6 cells to 10% when exposed to air for 3 hrs; details: Mus musculus
Mus musculus [5] = test: in vivo activity against aerobic and hypoxic cells in RIF-1 tumors when administered at a dose of 56.2 umol/kg in mice
Mus musculus [6] = test: in vivo activity against aerobic and hypoxic cells in RIF-1 tumors when administered at a dose of 56.2 umol/kg in mice 30 min before exposure to radiation
Mus musculus [7] = test: in vivo activity against aerobic and hypoxic cells in RIF-1 tumors when administered at a dose of 56.2 umol/kg in mice after 5 min of exposure to radiation
EMT6 [8] = test: Ability to reduce cell density of SKOV3 cells to 50% after 4 hr of exposure to air; details: Mus musculus
Mus musculus [9] = test: in vivo activity against aerobic and hypoxic cells in RIF-1 tumors when administered at a dose of 100 umol/kg in mice
Mus musculus [10] = test: in vivo activity against aerobic and hypoxic cells in RIF-1 tumors when administered at a dose of 100 umol/kg in mice 30 min before exposure to radiation
Mus musculus [11] = test: in vivo activity against aerobic and hypoxic cells in RIF-1 tumors when administered at a dose of 100 umol/kg in mice after 5 min of exposure to radiation
Mus musculus [12] = test: in vivo activity against aerobic and hypoxic cells in RIF-1 tumors when administered at a dose of 31.6 umol/kg in mice
Mus musculus [13] = test: in vivo activity against aerobic and hypoxic cells in RIF-1 tumors when administered at a dose of 31.6 umol/kg in mice 30 min before exposure to radiation
Mus musculus [14] = test: in vivo activity against aerobic and hypoxic cells in RIF-1 tumors when administered at a dose of 31.6 umol/kg in mice after 5 min of exposure to radiation

C[N+](CCCl)(CCCl)Cc1sccc1[N+](=O)[O-]
C10 (EMT6 [1]): 6 µM
C10 (EMT6 [2]): 6 µM
MTD (Mus musculus [3]): 56.2 µM/kg
C10 (EMT6 [4]): 30 µM
Log cell kill (Mus musculus [5]): 0.23
Log cell kill (Mus musculus [6]): 0.16
Log cell kill (Mus musculus [7]): 0.11

Cn1ncc([N+](=O)[O-])c1C[N+](C)(CCCl)CCCl
MTD (Mus musculus [3]): 23.7 µM/kg

C[N+](CCCl)(CCCl)Cc1ccc([N+](=O)[O-])s1
C10 (EMT6 [1]): 16 µM
C10 (EMT6 [2]): 1.3 µM
MTD (Mus musculus [3]): 56.2 µM/kg
C10 (EMT6 [4]): 22 µM
Log cell kill (Mus musculus [5]): 0.54
Log cell kill (Mus musculus [6]): 0.16
Log cell kill (Mus musculus [7]): 0.55

Cn1ccc(C[N+](C)(CCCl)CCCl)c1[N+](=O)[O-]
MTD (Mus musculus [3]): 56.2 µM/kg

C[N+](CCCl)(CCCl)Cc1ccccc1[N+](=O)[O-]
C10 (EMT6 [1]): 400 µM
C10 (EMT6 [8]): 12300 µM
C10 (EMT6 [2]): 66 µM
MTD (Mus musculus [3]): 100 µM/kg
Log cell kill (Mus musculus [9]): 0.24
Log cell kill (Mus musculus [10]): 0.01
Log cell kill (Mus musculus [11]): 0.92

Cn1c(C[N+](C)(CCCl)CCCl)ccc1[N+](=O)[O-]
MTD (Mus musculus [3]): 42.1 µM/kg

Cn1ncc(C[N+](C)(CCCl)CCCl)c1[N+](=O)[O-]
C10 (EMT6 [1]): 2500 µM
C10 (EMT6 [2]): 2.2 µM
MTD (Mus musculus [3]): 31.6 µM/kg
C10 (EMT6 [4]): 3450 µM
Log cell kill (Mus musculus [12]): 0.04
Log cell kill (Mus musculus [13]): 0.16
Log cell kill (Mus musculus [14]): 0.17

Cn1cnc([N+](=O)[O-])c1C[N+](C)(CCCl)CCCl
C10 (EMT6 [1]): 46 µM
C10 (EMT6 [2]): 1.2 µM
MTD (Mus musculus [3]): 100 µM/kg
C10 (EMT6 [4]): 57 µM
Log cell kill (Mus musculus [9]): 0.38
Log cell kill (Mus musculus [10]): 0.39
Log cell kill (Mus musculus [11]): 1.01
